Measured values as given in PubChem BioAssay AID493033 (ICCB-Longwood Screening Facility, Harvard Medical School, 2011).
Only a part is listed here, and it is no random draw. Some results for these compounds are left out of this collection, so the calls shown say nothing about other tests. Calls of active or inactive are those of the source. No stated cut-off is given here; in the data, active means inhibition mostly above about 56% (no sharp cut-off); inactive means mostly below about 77%.

Protein sequences, listed by entry. Tags and fused reporters are not part of them.
UniProt P9WFX0, whole entry: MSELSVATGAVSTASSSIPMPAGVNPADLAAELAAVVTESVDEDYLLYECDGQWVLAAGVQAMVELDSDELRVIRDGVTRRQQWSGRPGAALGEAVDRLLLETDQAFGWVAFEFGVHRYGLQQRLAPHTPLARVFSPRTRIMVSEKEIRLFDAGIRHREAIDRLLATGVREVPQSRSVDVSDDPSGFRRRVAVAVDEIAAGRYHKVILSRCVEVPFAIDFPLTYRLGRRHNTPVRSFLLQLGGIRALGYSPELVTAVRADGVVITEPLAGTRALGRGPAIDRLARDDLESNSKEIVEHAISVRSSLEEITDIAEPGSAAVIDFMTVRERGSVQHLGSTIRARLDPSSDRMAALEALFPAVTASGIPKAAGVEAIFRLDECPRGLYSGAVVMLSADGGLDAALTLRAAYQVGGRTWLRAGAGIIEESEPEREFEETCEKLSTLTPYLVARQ

What follows are compounds tested against Salicylate synthase (Mycobacterium tuberculosis (strain CDC 1551 / Oshkosh)) (UniProt P9WFX0) (assay: MbtI salicylate synthase inhibitors, primary screen, biochemical, fluorescence intensity (AID 493033)). Details: purified MbtI enzyme, fluorescence intensity read-out; hits give high values; concentration not given here.

With `CN(C)C1(CNC(=O)c2ccncc2)CCCCC1` as the compound, how does the inhibition read?
The inhibition was inactive: 7.6%.

Which inhibition does the source give for `N#CC(C#N)=Cc1ccccc1` here?
Its inhibition is inactive: -3.2%.

For `O=C(NCC1(N2CCCCC2)CCCCC1)c1ccc2c(c1)OCCO2`, which inhibition is on record?
Its inhibition is inactive: 140%.

How did the inhibition turn out when `CN1C2CCC1CC(OC(=O)C(O)(c1ccccc1)c1ccccc1)C2` (configuration not stated) was run?
The inhibition was inactive: -11.1%.

For `O=C(NCC1(N2CCOCC2)CCCCC1)c1cnc(Cl)c(Cl)c1`, which inhibition is on record?
The inhibition was inactive: -2.7%.

Which inhibition does the source give for `COc1ccc(OC)c(C=C(C#N)C#N)c1` here?
Its inhibition is inactive: -14.9%.

`CN(C)c1ccc(C(=O)NCC2(N(C)C)CCCCC2)cc1` was tested. Which inhibition did it give?
The inhibition was inactive: 10.8%.
